Source: patent US10071991B2, “Substituted pyridine derivatives useful as c-fms kinase inhibitors” (Janssen Pharmaceutica NV, priority 2013, dated 2018)

Tested on: CSF-1 induced MCP-1 expression in human monocytes
Test: cells
Settings: Monocyte, read-out: IC50 (mM) (Mean (n = 3) ± Std. Dev)

SMILES	IC50
CC1(C)CC=C(c2nc([C@H]3CC(C)(C)O[C@@](C)(CO)C3)ccc2NC(=O)c2nc(C#N)c[nH]2)CC1 (single isomer, unassigned) [(I-M7-2R,4S)]	0.00237 ± 0.00046 mM
CC1(C)CC=C(c2nc([C@@H]3CC(C)(C)O[C@](C)(CO)C3)ccc2NC(=O)c2nc(C#N)c[nH]2)CC1 (single isomer, unassigned) [(I-M7-2S,4R)]	0.001 ± 0.00055 mM
